Values of other authors as cited in patent US11744789B2, “Method for dyeing keratinous material, comprising the use of an organosilicon compound, a colored effect pigment and a sealing reagent III” (Henkel AG & Co. KGaA, priority 2019, dated 2023).

Conditions: 25° C.

For “3,4,5,6-tetrachloro-2-(1,4,5,8-tetrabromo-6-hydroxy-3-oxoxanthen-9-yl)benzoic acid [Acid Red 92]”, the solubility in water is given as “greater than 10 g/L”.
